Assay results as given in ChEMBL document CHEMBL1149152, “Selective, orally active gamma-aminobutyric acidA alpha5 receptor inverse agonists as cognition enhancers” (J Med Chem, 2004).
pKi: −log10 of the molar value.

By UniProt entry, the sequences of proteins in these tests, tags left out. Residues count along the entry.
UniProt P18507, 40-475 limits assumed: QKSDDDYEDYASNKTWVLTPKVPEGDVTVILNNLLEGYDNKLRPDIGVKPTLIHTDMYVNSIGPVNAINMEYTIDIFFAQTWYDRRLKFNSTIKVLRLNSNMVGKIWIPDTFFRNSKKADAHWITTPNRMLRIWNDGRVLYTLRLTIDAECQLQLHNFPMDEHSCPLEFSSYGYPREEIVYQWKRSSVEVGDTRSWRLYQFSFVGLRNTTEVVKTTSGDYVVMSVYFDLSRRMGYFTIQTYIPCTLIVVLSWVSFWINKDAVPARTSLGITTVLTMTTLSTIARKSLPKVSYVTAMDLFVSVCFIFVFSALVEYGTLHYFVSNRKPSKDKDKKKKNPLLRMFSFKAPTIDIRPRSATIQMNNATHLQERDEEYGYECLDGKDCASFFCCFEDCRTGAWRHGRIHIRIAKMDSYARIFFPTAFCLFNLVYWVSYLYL
UniProt P28472, 26-473 limits assumed: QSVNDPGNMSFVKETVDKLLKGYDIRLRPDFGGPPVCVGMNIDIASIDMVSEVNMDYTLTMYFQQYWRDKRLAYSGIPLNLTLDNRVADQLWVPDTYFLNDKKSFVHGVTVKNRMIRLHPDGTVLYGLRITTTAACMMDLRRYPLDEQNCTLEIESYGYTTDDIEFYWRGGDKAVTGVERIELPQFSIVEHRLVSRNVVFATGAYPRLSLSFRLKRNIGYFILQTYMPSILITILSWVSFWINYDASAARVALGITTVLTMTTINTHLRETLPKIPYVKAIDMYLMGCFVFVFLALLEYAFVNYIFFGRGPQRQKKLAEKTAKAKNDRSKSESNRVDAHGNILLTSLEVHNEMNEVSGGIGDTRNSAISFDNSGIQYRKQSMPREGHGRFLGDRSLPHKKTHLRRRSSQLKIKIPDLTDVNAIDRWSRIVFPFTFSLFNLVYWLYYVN
UniProt P31644, 32-462 limits assumed: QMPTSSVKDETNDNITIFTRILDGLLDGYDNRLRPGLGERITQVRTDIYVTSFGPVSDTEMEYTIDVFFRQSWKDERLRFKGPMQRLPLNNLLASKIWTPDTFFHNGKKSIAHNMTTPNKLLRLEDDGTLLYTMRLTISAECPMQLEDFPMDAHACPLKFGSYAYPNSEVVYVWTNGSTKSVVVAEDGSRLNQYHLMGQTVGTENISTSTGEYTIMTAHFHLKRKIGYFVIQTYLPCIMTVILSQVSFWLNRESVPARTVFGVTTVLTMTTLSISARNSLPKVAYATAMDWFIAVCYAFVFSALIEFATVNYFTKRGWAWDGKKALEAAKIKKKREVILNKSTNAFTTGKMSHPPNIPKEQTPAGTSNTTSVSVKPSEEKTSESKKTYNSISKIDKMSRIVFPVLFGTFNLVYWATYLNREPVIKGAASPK
UniProt P34903, 29-492 limits assumed: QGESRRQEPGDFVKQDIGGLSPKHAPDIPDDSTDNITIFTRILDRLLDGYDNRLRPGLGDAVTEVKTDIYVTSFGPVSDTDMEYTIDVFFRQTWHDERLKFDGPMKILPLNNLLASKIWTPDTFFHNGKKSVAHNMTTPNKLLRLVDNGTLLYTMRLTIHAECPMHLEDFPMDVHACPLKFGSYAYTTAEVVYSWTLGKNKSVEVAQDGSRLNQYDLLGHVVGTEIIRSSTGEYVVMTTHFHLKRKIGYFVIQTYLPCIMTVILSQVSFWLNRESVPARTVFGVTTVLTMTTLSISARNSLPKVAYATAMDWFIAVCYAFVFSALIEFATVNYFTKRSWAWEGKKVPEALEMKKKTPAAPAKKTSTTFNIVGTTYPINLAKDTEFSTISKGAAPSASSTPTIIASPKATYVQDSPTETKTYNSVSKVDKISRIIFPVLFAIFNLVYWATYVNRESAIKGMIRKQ
UniProt P14867, 28-456 limits assumed: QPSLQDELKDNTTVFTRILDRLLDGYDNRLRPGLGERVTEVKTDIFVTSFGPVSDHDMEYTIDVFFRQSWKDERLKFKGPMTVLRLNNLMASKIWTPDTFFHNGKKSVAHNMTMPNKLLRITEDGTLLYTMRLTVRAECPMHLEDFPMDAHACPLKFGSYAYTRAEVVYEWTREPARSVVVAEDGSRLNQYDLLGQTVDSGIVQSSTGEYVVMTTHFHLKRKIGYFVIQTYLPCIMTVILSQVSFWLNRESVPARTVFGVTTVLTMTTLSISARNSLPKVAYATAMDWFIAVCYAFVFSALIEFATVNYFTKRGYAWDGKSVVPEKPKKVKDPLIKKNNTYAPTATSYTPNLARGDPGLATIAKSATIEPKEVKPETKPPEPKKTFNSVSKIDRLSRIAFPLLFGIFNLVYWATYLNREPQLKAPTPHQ

Columns and labels:
Conditions in all cases: oocyte
[1] = molecular target: GABA-A receptor; alpha-5/beta-3/gamma-2 (Homo sapiens, UniProt P18507+P28472+P31644); assay: Displacement of [3H]-Ro- 15-1788 from human GABA-A alpha-5-beta-3-gamma-2 receptor subunits expressed in Xenopus oocytes
[2] = molecular target: GABA-A receptor; alpha-3/beta-3/gamma-2 (Homo sapiens, UniProt P18507+P28472+P34903); assay: Displacement of [3H]-Ro- 15-1788 from human GABA-A alpha-3-beta-3-gamma-2 receptor subunits expressed in Xenopus oocytes
[3] = molecular target: GABA-A receptor; alpha-1/beta-3/gamma-2 (Homo sapiens, UniProt P14867+P18507+P28472); assay: Displacement of [3H]-Ro- 15-1788 from human GABA-A alpha-1-beta-3-gamma-2 receptor subunits expressed in Xenopus oocytes

Structure (SMILES): CNC1=Nc2ccc(Cl)cc2C(c2ccccc2)=[N+]([O-])C1
- pKi [1]: 6.28
- pKi [2]: 6.13
- pKi [3]: 6.11
